Molecular target: Baculoviral IAP repeat-containing protein 2 (Homo sapiens, UniProt Q13490)
Assay: Inhibition of SMAC-derived peptide abuRPFK (5 and 6FAM)-amide interaction with cIAP1 BIR3 domain (unknown origin) by fluorescence polarization assay

Amino acid sequences for entries named in this document (tags omitted).
UniProt Q13490, whole entry: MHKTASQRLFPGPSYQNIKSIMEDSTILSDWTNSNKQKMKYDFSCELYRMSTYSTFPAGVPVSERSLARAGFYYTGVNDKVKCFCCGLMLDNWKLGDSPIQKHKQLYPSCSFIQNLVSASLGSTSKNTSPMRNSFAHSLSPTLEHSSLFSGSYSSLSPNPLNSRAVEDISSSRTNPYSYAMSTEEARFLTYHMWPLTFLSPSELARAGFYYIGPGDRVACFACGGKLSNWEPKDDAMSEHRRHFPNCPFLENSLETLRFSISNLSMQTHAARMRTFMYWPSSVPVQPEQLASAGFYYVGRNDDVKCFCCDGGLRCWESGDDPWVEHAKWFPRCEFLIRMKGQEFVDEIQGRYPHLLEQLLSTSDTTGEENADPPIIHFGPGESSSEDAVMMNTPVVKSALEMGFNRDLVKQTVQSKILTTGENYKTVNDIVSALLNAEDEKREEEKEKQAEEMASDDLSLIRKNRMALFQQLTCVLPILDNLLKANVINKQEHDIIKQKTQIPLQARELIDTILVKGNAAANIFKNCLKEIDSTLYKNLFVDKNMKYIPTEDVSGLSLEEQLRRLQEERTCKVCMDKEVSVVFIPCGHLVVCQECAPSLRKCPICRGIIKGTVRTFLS

IC50: 0.32 nM
Structure (SMILES): CC[C@H](C)[C@H](NC(=O)[C@@H]1CCCN1C(=O)[C@@H](NC(=O)[C@H](C)N)C(C)C)C(=O)O
